Data taken from publication PMC3215401 (Biosensors & bioelectronics, 2011).

How the values were obtained:
Format in all cases: cell-based, human
[1] = target: PPARγ LBD, sensor 110PPARγ383 (UniProt P37231+P9WHJ3, V318L)
[2] = target: PPARγ LBD, sensor 100PPARγ383 (UniProt P37231+P9WHJ3, V318L)
[3] = target: PPARγ LBD, sensor 110PPARγ393 (UniProt P37231+P9WHJ3, V318L)
[4] = target: PPARγ LBD, sensor 94PPARγ403 (UniProt P37231+P9WHJ3, V318L)

`CN(CCOc1ccc(CC2SC(=O)NC2=O)cc1)c1ccccn1` (stereo not shown) [ROSIG, Rosiglitazone] was tested, and the “effect on cell growth” value [1] was “significantly enhanced”, the “effect on cell growth” value [2] was “slightly increased sensitivity” and the “effect on cell growth” value [3] was “strongly facilitated its growth”. For the same compound, the “effect on cell growth” value [4] was “strong positive responses”.
